Test results: US11173144B2, “Adrenergic receptor modulating compounds and methods of using the same” (The Board of Trustees of the Leland Stanford Junior …, priority 2016, dated 2021)
Several values for one entry are separate records, joined by “and”; a condition that tells them apart may be missing. Identical values can stand only once.

Assay: Pharmacokinetic study, 20 min post-dose collection (plasma and brain)
Set-up: species or system Sprague-Dawley rats
Settings: Sprague-Dawley, rat, in vivo; for concentration at 20 min: 10 mg/kg
Method: Two cohorts of Sprague-Dawley rats are used in two independent studies. All animals are fasted overnight before the experiment with free access to water. In study 1, a total of 18 rats are used for a 4 h time course pharmacokinetic (PK) study. […] On the day of the experiment, xamoterol is freshly prepared in saline. […] Four hours post-dose, rats are deeply anesthetized with isoflurane and blood samples are collected by cardiac puncture. In study 2, a total of 18 rats are used for a 20 min post-dose collection study. […] At 20 min post-dose, rats are deeply anesthetized with isoflurane and blood samples are collected by cardiac puncture. Brains are collected after perfusion with phosphate buffered saline. […] LC separation is carried out on a Phenomenex Synergi Polar-RP column (2.5 μm, 2 mm×50 mm) with a flow rate of 0.25 ml/min at room temperature. Mobile phase A consisted of 10 mM ammonium acetate and 0.1% formic acid in LCMS grade water. Mobile phase B consisted of 10 mM ammonium acetate and 0.1% formic acid in LCMS grade acetonitrile: water 90:10% (v/v). […] Five μl of the extracted samples is injected. The mass spectrometer is operated in the positive mode with multiple-reaction monitoring (MRM) with the transition m/z 334.1→210.1 and 334.1→100.2.

Compound: O=C(NCCNCC(O)COc1ccc(O)cc1)N1CCOCC1 (centres unmarked) [Xamoterol]
- plasma concentration following PO as percent of that achieved via IP (20 min): 0.2%
- plasma concentration following PO as percent of that achieved via IV (20 min): 0.7%
- concentration at 20 min (ip): 3110 ng/mL and 26.5 ng/g
- concentration at 20 min (iv): 1120 ng/mL and 38.3 ng/g
- concentration at 20 min (po): 8.1 ng/mL and 15.8 ng/g
